In this test the target is T1, human mitochondrial single-stranded DNA binding protein, purified recombinant (human, UniProt Q04837 17-148).
T1 sequence (looked up): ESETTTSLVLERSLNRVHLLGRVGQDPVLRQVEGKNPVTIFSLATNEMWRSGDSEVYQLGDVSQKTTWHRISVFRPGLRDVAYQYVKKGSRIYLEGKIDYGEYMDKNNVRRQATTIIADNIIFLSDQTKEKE
Kind of test: far-Western, overlay or dot blot.

B1: GST-tagged NEIL1 C-terminal construct 289–349 (domain or fragment, human, UniProt Q96FI4 289-349, looked up)
chain: APKGRKSRKKKSKATQLSPEDRVEDALPPSKAPSRTRRAKRDLPKRTATQRPEGTSLQQDP
Take B1: the binding result is “binds”.

The values are drawn from article PMC5911420 (DNA repair, 2018).
